We go through 3 compounds from patent US12128037B2, “Sulfasalazine salts, production processes and uses” (priority 2017, dated 2024).

Marks after values point to notes of the source that are not given here.

Data set [1] can be described thus: Solubility in water or FaSSIF-V2 medium (Example 8, HPLC).
For data set [2] the following is noted: hemi salts with metal counterions, trihydrates; cited from earlier work.
Another data set deals with Caco-2 cell monolayers. Nature of the data set: Transport across Caco 2 cell monolayer. In kind it is in vitro ADME. The note with it: direction ab, 180 min incubation. Here is the method:
Experiments were performed in triplicate.

In the case of `CNCC(O)C(O)C(O)C(O)CO.O=C(O)c1cc(N=Nc2ccc(S(=O)(=O)Nc3ccccn3)cc2)ccc1O` [Form A meglumine salt], the pH in data set [1] (FaSSIF-V2, saturated solution) is recorded as 6.4; in data set [1] (Water, saturated solution) it was 7.5; in data set [1] (diluted in phosphate Buffer pH 6.8 (Water column)) it was 6.0*.
Regarding `O.O.O.O=C([O-])c1cc(/N=N/c2ccc(S(=O)(=O)Nc3ccccn3)cc2)ccc1O.O=C([O-])c1cc(/N=N/c2ccc(S(=O)(=O)Nc3ccccn3)cc2)ccc1O.[Ca+2]` [calcium (as its trihydrate)], the “solubility compared to sulfasalazine” value in data set [2] was “less soluble than sulfasalazine”.
For the compound `O=C(O)c1cc(/N=N/c2ccc(S(=O)(=O)Nc3ccccn3)cc2)ccc1O` [sulfasalazine, 2-hydroxy-5-[2-[4-[(2-pyridinylamino)sulfonyl]phenyl]diazenyl]-benzoic acid], the Cumulative drug transport with Caco-2 cell monolayers (50 μg/mL) amounted to 1.14 μg/cm^2; with Caco-2 cell monolayers (200 μg/mL) it was 3.81 μg/cm^2. Further, the pH in data set [1] (FaSSIF-V2, saturated solution) is reported as 6.3; in data set [1] (Water, saturated solution), 5.9.
